The target in the experiment is GLP-1 receptor (Homo sapiens, UniProt P43220). Kind of experiment: Functional assay-cAMP synthesis, luciferase reporter in HEK293 cells co-transfected with GLP-1 receptor. On the technique in general: In a reporter assay the amount or activity of a reporter protein is the signal.

By UniProt entry, the sequences of proteins in these tests, tags left out. Residues count along the entry.
UniProt P43220, 24-463, species assumed: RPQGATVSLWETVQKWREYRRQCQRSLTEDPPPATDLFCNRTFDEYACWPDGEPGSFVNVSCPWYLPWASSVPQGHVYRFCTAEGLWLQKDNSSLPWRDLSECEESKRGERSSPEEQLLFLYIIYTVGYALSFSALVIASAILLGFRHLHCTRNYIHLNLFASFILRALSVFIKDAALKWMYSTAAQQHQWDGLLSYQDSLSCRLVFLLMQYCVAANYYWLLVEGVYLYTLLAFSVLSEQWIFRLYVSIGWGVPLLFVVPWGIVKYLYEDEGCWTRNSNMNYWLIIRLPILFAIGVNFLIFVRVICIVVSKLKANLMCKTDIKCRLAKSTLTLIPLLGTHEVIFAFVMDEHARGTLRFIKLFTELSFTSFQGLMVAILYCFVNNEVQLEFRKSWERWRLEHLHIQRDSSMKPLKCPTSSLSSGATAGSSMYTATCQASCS

Here are results for 1 substance from patent US8900593B2 (Indiana University Research and Technology Corporation, priority 2007, dated 2014).

With X1SQGT FTSDY SKYLD ERRAK DEVC*W LMNTa, the “Parent w/PEG % Potency Relative to Native GLP-1R” value is on record as 9.3%.
